Two compounds from PubChem BioAssay AID687014 (The Scripps Research Institute Molecular Screening Center, 2013) can be followed below.

This is a selection; strong and weak results do not stand in their true shares. Activity calls are given as the source filed them.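 Rule for the calls: active = activation above a cutoff set at the mean of all screened compounds plus 3 SD (cut at about 10% in these data); inactive = the rest.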

For this assay, the system named is Nuclear hormone receptor DAF-12 (Heterodera glycines), GAL4 fusion. As to the kind of experiment: hgDAF-12 GAL4 fusion reporter activation – cell-based, luminescence, HEK293, UAS-luciferase, primary screen (AID 687014).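 Note: 0% = DMSO wells and 100% = sodium butyrate wells.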 Particulars: HEK293 GAL4-hgDAF12 UAS-luciferase reporter, agonist luminescence; at 6.8 µM; active compounds read high; normalized to butyrate control. In general terms: Reporter assays use an easily measured gene product as a stand-in for the process of interest.
As for `CCC(=O)N(c1ccccc1)C1(COC)CCN(CCc2cccs2)CC1`, the activation is inactive: 1.16%.
The figure for `CCC(=O)N(c1ccccc1)C1(COC)CCN(CCn2nnn(CC)c2=O)CC1` is inactive: 1.36%.
